Here are results for two compounds from US7115637B2.

Amino acid sequences for entries named in this document (tags omitted).
UniProt Q16539, whole entry: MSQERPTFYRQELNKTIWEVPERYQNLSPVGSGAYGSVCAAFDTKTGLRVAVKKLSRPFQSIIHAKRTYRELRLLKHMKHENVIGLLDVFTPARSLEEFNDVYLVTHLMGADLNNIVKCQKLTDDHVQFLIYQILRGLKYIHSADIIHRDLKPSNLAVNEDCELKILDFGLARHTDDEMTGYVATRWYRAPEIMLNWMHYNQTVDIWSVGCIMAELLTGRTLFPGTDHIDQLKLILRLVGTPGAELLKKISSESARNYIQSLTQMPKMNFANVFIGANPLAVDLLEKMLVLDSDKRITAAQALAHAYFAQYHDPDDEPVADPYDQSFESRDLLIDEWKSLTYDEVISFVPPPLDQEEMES

The subject of assay [1] is IL-1 production in LPS-stimulated PBMCs. Put plainly: Inhibition of IL-1 production in LPS-stimulated PBMCs. Conditions: read-out: Cell IL-1 IC50, 4 ng/ml LPS, ELISA IL-1b. The method, then:
(§1) C. Inhibition of IL-1, TNF, IL-6 and IL-8 Production in LPS-Stimulated PBMCs
(§2) Inhibitors were serially diluted in DMSO from a 20 mM stock. At least 6 serial dilutions were prepared. Then 4× inhibitor stocks were prepared by adding 4 μl of an inhibitor dilution to 1 ml of RPMI1640 medium/10% fetal bovine serum. The 4× inhibitor stocks contained inhibitor at concentrations of 80 μM, 32 μM, 12.8 μM, 5.12 μM, 2.048 μM, 0.819 μM, 0.328 μM, 0.131 μM, 0.052 μM, 0.021 μM etc. The 4× inhibitor stocks were pre-warmed at 37° C. until use.
(§3) Fresh human blood buffy cells were separated from other cells in a Vacutainer CPT from Becton & Dickinson (containing 4 ml blood and enough DPBS without Mg^2+/Ca^2+ to fill the tube) by centrifugation at 1500×g for 15 min. […] The total cell number was determined using a Neubauer Cell Chamber and the cells were adjusted to a concentration of 4.8×10^6 cells/ml in cell culture medium (RPMI1640 supplemented with 10% fetal bovine serum). […]
(§4) The next day the cells were mixed on a shaker for 3–5 minutes before centrifugation at 500×g for 5 minutes. Cell culture supernatants were harvested and analyzed by ELISA for levels of IL-1b (R & D Systems, Quantikine kits, #DBL50), TNF-α (BioSource, #KHC3012), IL-6 (Endogen, #EH2-IL6) and IL-8 (Endogen, #EH2-IL8) according to the instructions of the manufacturer. […]

Assay [2] has as its system TNF production in LPS-stimulated PBMCs. Put plainly: Inhibition of TNF production in LPS-stimulated PBMCs. Conditions: read-out: Cell TNF IC50, 4 ng/ml LPS, ELISA TNF-α. The method, then: as §1, §2, §3, §4
A general note: In an ELISA, binding on a coated surface is turned into a signal by an enzyme label.

For assay [3], the target named is activated p38 (Homo sapiens, UniProt Q16539). Put plainly: Inhibition of phosphorylation of EGF receptor peptide (kinase assay). Conditions: read-out: Kinase IC50; activated p38 5 nM, EGF receptor peptide 200 μM, ATP 100 μM, HPLC. The protocol:
A. Inhibition of Phosphorylation of EGF Receptor Peptide
This assay was carried out in the presence of 10 mM MgCl2, 25 mM β-glycerophosphate, 10% glycerol and 100 mM HEPES buffer at pH 7.6. For a typical IC50 determination, a stock solution was prepared containing all of the above components and activated p38 (5 nM). The stock solution was aliquotted into vials. A fixed volume of DMSO or inhibitor in DMSO (final concentration of DMSO in reaction was 5%) was introduced to each vial, mixed and incubated for 15 minutes at room temperature. EGF receptor peptide, […], a phosphoryl acceptor in p38-catalyzed kinase reaction (1), was added to each vial to a final concentration of 200 μM. The kinase reaction was initiated with ATP (100 μM) and the vials were incubated at 30° C. After 30 minutes, the reactions were quenched with equal volume of 10% trifluoroacetic acid (TFA).
The phosphorylated peptide was quantified by HPLC analysis. Separation of phosphorylated peptide from the unphosphorylated peptide was achieved on a reverse phase column (Deltapak, 5 μm, C18 100D, Part no. 011795) with a binary gradient of water and acteonitrile, each containing 0.1% TFA. IC50 (concentration of inhibitor yielding 50% inhibition) was determined by plotting the percent (%) activity remaining against inhibitor concentration.

Assay [4] has as its system TNF production in whole blood. Put plainly: Inhibition of TNF production in LPS-stimulated whole blood. Conditions: read-out: WB TNF IC50, 4 ng/ml LPS, ELISA TNF-α. The protocol:
as §1, §2
Alternatively, whole blood containing an anti-coagulant was used directly in the assay.
100 μl of cell suspension or whole blood were placed in each well of a 96-well cell culture plate. Then 50 μl of the 4× inhibitor stock was added to the cells. Finally, 50 μl of a lipopolysaccharide (LPS) working stock solution (16 ng/ml in cell culture medium) was added to give a final concentration of 4 ng/ml LPS in the assay. […]
as §4

Regarding `Cc1cc(F)ccc1-c1nc(N(C(N)=O)c2c(Cl)cccc2Cl)ccc1CO`, the IC50 is 20 nM in assay [1], 50 nM in assay [2] and 2 nM in assay [3].

Turning to `Cc1cc(F)ccc1-c1nc(N(C(N)=O)c2c(F)cccc2F)ccc1CO`, the IC50 is 10 nM in assay [2] and 90 nM in assay [4].
